Measured values as given in patent US20090191178A1.

Columns and labels:
[1] = biological target: mannose-6-phosphate receptor (MPR) on Pompe patient fibroblasts (human (Pompe patient fibroblasts)) (UniProt P11717); test: cell-based or functional assay
[2] = biological target: soluble extracellular domain of the bovine cation independent mannose-6-phosphate receptor (CI-MPR) (bovine) (UniProt P08169); test: CI-MPR Affigel-15 column, 6 ug rhGAA loaded, eluted with mannose-6-phosphate gradient, fractions assayed by 4MU-alpha-glucoside assay or ELISA

recombinant human acid alpha-glucosidase (rhGAA) from CHOK1 transfectant B7 (GAA1) (from UniProt P10253 70-952) (enzyme)
Kuptake GM248 (nM); B7 grown in JRH-302 medium [1]: 1.6 nM

recombinant human acid alpha-glucosidase (rhGAA) from DUXB11 CHO clone 3.1.36 (from UniProt P10253 57-952) (enzyme)
Kuptake (rate of enzyme uptake) into GM244 Pompe patient fibroblasts, 4 h, GAA activity in lysate by 4MU-alpha-glucoside assay [1]: 2.95 nM

recombinant human acid alpha-glucosidase (rhGAA) from G71 transfectant C3-S (GAA1-M), adapted to suspension culture (from UniProt P10253 70-952) (enzyme)
Kuptake GM248 (nM); C3-S grown in CD-CHO medium [1]: 2.1 nM
Kuptake GM248 (nM); C3-S grown in JRH-302 medium [1]: 1.9 nM

recombinant human acid alpha-glucosidase (rhGAA) from G71 transfectant F5 (GAA1-M) (from UniProt P10253 70-952) (enzyme)
percent of enzyme bound to immobilized MPR [2]: 70%
Kuptake GM248 (nM); F5 grown in JRH-302 medium [1]: 2.2 nM
